Apparent affinities of Ab-14 variants for a coronavirus HR2 peptide

The measurements come from Li et al. 2023 (doi:10.1038/s41467-023-39022-2) through the FLAb antibody collection.

Target: peptide PDVDLGDISGINAS, taken from heptad repeat 2 (HR2) of SARS-CoV-2 spike.

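These sequences belong to a second round, designed from the earlier measurements on random variants of the parent. Group labels follow the data file (Ctrl: baseline library sampled from a position-specific scoring matrix, with some repeated check sequences; En: ensemble of fine-tuned language models; GP: Gaussian process model; HC: hill climbing; Gen: genetic algorithm; Gibbs: Gibbs sampling; a sequence that several methods proposed may carry one label only). Affinity was read by AlphaSeq, a pooled yeast mating assay with surface-displayed partners. Pairs that bind mate more often; barcode pairs of the diploids are counted by sequencing. Scores were corrected for input abundance and mapped to Kd with protein pairs of known affinity run in the same pool. Each pool was mated in six replicate cultures.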

Parent scFv Ab-14: VH joined to VL by a (GGGGS)3 linker. Changes lie in the light chain CDRs alone.
VH: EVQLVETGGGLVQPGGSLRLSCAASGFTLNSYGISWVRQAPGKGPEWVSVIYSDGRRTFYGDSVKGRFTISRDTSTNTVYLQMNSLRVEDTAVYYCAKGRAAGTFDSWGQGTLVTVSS
VL: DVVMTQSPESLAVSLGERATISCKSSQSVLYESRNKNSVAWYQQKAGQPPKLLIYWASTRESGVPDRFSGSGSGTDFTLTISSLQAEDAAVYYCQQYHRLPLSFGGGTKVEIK

The parent's light chain CDRs are KSSQSVLYESRNKNSVA, WASTRES, QQYHRLPLS; each variant's own CDRs replace them letter for letter.
The read-out is the apparent dissociation constant on a log10 scale (nM): the lower, the stronger.
A mean of the replicates is given; it leaves out those without a signal.
A pair that was not seen in any replicate is written "nd"; this usually means weak binding, but a binder can also be missed.
A sequence that the file lists under several names has all its replicates pooled.

HVAMECAEEKNKYYNIA / DASMRLA / QQYVRLPLG [En_Gibbs]: 0.29 (6 of 6 replicates).
KLSQSVLYESRNKNNVA / EASTREM / QQYHRLPLS [GP_Gen]: -0.06 (6 of 6 replicates).
KLYSVTSTEKVNGNNVA / EMETRER / QQYNRLPLS [En_Gen]: 2.77 (2 of 6 replicates).
KLEQQWLYESRNKNSVA / NASTRES / QQYHRLPLS [GP_Gen]: -0.28 (6 of 6 replicates).
MLSDLVKMGSRNTNSVA / DNSTRGS / QQYDRLPLS [En_HC]: 1.88 (6 of 6 replicates).
HMSMITLQGMRHRNSVA / QMTTREN / QQYDHLPLS [En_Gen]: 1.94 (6 of 6 replicates).
KVRQSTLGESRNKNSVA / WASTRES / QQYHRLPLS [GP_HC]: 0.93 (6 of 6 replicates).
MMLSGSVEQQNIQNAVA / EMSMVYD / QQYVSLPLS [En_Gibbs]: nd (0 of 6 replicates).
KLSQSNLYESRNKNSVA / NASTREK / QQYHRLPLS [GP_Gen]: -0.25 (6 of 6 replicates).
KSSQSVLYEMRNKNSVA / WASTRFS / QQYHRLPLS [Ctrl]: 1.83 (4 of 6 replicates).
KLMQSMLYESRNKNSVA / NASYRES / QQYHRLPLS [GP_Gen]: -0.25 (6 of 6 replicates).
NLNTGYEGGFLNTDNIA / HGNMVEA / QQYYRLPLS [En_Gibbs]: -0.04 (6 of 6 replicates).
IISQVDDYLMHNTNSIA / DQTTRGS / QQYDRLPLS [En_HC]: 2.14 (5 of 6 replicates).
KLYFSEEYGSRNKNSVA / SASQRES / QQYHRLPLS [GP_Gibbs]: 0.50 (6 of 6 replicates).
QISLNGWDGTKKEYAVA / EGTKKDA / QQYSRLPLS [En_Gibbs]: 0.64 (6 of 6 replicates).
KLMNSLDAFKQWEDNIA / ETEIKVA / QQYYHLPLT [En_Gibbs]: 2.05 (3 of 6 replicates).
KSSQSVEYESRNKNSVA / EASTRES / QQYHRLPLS [Ctrl]: 0.23 (6 of 6 replicates).
SLELFSLEGDKPVNAVA / DEVVKLA / QQYFRLPLH [En_Gibbs]: 0.93 (6 of 6 replicates).
KSSQHVLYESRNDNSVA / WASTREP / QQYHRLPLS [Ctrl]: 2.73 (4 of 6 replicates).
KVSISYLPESRNKNSVA / EASTRES / QQYHRLPLS [GP_HC]: -0.03 (6 of 6 replicates).
KLSQITGHMSVSKNNVA / EMETRAN / QQYDRLPLA [En_Gen]: 1.12 (6 of 6 replicates).
KLSQMDLYESRMSNSVA / MASTREV / QQYHRLPLS [GP_Gibbs]: 0.33 (6 of 6 replicates).
IVSQLMLWGWHAKNSIA / EAEMRLN / QQYHRLPLF [En_Gen]: nd (0 of 6 replicates).
HLSLPWQLGHPSTNAVA / NMSVLMT / QQYSRLPLS [En_Gibbs]: 0.04 (6 of 6 replicates).
MSSQSVLYESRNKNSTA / WANKRES / QQYHDLPLS [Ctrl]: nd (0 of 6 replicates).
KLMGQGGHSIAHANSIA / NVDNVDA / QQYAHLPLS [En_Gibbs]: 1.22 (6 of 6 replicates).
RFDQWVLESNNTEKSIA / SASNREQ / QQYARLPLF [En_Gibbs]: 1.85 (6 of 6 replicates).
KLSQSWLYESRNKNSVA / NASTRYS / QQYHRLPLS [GP_Gen]: 0.38 (6 of 6 replicates).
MIEEDNAGEQKNSSNIA / SVDQRED / QQYQRLPLM [En_Gibbs]: 1.54 (6 of 6 replicates).
TIDDEMPNHGFHWNSIA / GVATVLQ / QQYDRLPLS [En_Gibbs]: 2.58 (5 of 6 replicates).
KSSQSVLYESENKNSVA / DASQRES / QQYHRLPLS [GP_HC]: 0.44 (6 of 6 replicates).
ILSQSVLMGMHTRNNVA / QATMRFN / QQYHRLPFM [En_HC]: 1.21 (2 of 6 replicates).
HIDIINRGEDMKQDPIA / QADHREQ / QQYFHLPLI [En_Gibbs]: 2.10 (5 of 6 replicates).
KIGMTLNMMMHKKNNVA / DLVTREK / QQYHRLPLS [En_Gen]: 0.79 (6 of 6 replicates).
KSSQSDPYESRNFNSPA / WASTRES / QQYHRLPLS [Ctrl]: nd (0 of 6 replicates).
TISQLMNMGQFAINSVA / QASIRNE / QQYDRLPLQ [En_Gen]: 1.33 (6 of 6 replicates).
KLQQSWLYESRNKNNVA / GASTRES / QQYHRLPLS [GP_Gen]: -0.55 (6 of 6 replicates).
KLTMIMGLEKVSKNNVA / EMETRER / QQYNRLPLS [En_Gen]: 0.88 (6 of 6 replicates).
KLSQGELMESRNKNSVA / EASCREE / QQYHRLPLS [GP_Gibbs]: 0.00 (6 of 6 replicates).
KLSFMVMEGSRNKNSVA / EASLREW / QQYHRLPLS [GP_Gibbs]: 0.77 (6 of 6 replicates).
KLSQSCLYESRNKNNVA / GASTRES / QQYHRLPLS [GP_Gen]: 0.32 (6 of 6 replicates).
KISMMSSIESIMHNSVA / QTSEREN / QQYDRLPLS [En_HC]: 0.71 (6 of 6 replicates).
KSSQSELYESRNKNSVA / WASTRES / QQYQTLPLS [Ctrl]: 2.02 (6 of 6 replicates).
KCMGSSLYESRNKNSVA / NASTREV / QQYHRLPLS [GP_Gibbs]: -0.29 (6 of 6 replicates).
KWQQSDDMESRNHNSVA / HASTRCS / QQYHRLPLS [GP_Gibbs]: 0.65 (6 of 6 replicates).
IVSQLMLWGLHAKNSIA / EAEMRTN / QQYERLPLI [En_Gen]: 2.03 (1 of 6 replicates).
MISDLTMYGSRNVNSVA / DLSDRGS / QQYDRLPLS [En_HC]: 1.01 (6 of 6 replicates).
KLSQSVLYESRNKNSVA / NASTRES / QQYHRLPLS [Ctrl+GP_Gen]: -0.06 (12 of 12 replicates).
ALAYTLHQNQSNQSNIA / QVQEREV / QQYYRLPLG [En_Gibbs]: 2.71 (1 of 6 replicates).
KSSQSVLKLSGNKNSVA / RASTRES / QQYVRLPLS [Ctrl]: 1.50 (6 of 6 replicates).
KVSPSQLYWSRNFNAVA / QASTRET / QQYHRLPLS [GP_Gibbs]: 0.81 (6 of 6 replicates).
KSSQSQLYESRNKNSVA / KASTRES / QQYDSLPLS [Ctrl]: 1.05 (6 of 6 replicates).

The 5 strongest on average among those seen in every replicate, once more:

With KLQQSWLYESRNKNNVA / GASTRES / QQYHRLPLS [GP_Gen] the result was -0.55 (6 of 6 replicates).
With KCMGSSLYESRNKNSVA / NASTREV / QQYHRLPLS [GP_Gibbs] the result was -0.29 (6 of 6 replicates).
With KLEQQWLYESRNKNSVA / NASTRES / QQYHRLPLS [GP_Gen] the result was -0.28 (6 of 6 replicates).
With KLSQSNLYESRNKNSVA / NASTREK / QQYHRLPLS [GP_Gen] the result was -0.25 (6 of 6 replicates).
With KLMQSMLYESRNKNSVA / NASYRES / QQYHRLPLS [GP_Gen] the result was -0.25 (6 of 6 replicates).

A sequence measured in both rounds can read differently, since the two assays cover different ranges.
Of ten entries with the parent sequence, four were seen in most replicates (averages 0.34 to 2.37), three in one and three in none, so single entries are noisy.
Nonspecific signal, from three strains lacking the peptide, appeared in 4% of pairings of all light chain designs, centred on 2.64 (5% of these signals below 1.59); values are not corrected for it.
The authors' rule: three or more of the six replicates give a measured affinity, fewer mean a poor binder.